# Curated experimental data: water solubility values

Values as listed in the OPERA 2.9 repository of K. Mansouri.

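The OPERA project collected these measurements from public sources as training and test data for property models. The files give a single number for a compound and property, which may rest on several reports. Method, purity and exact conditions of the single measurements are not given. Where a salt, mixture or single isomer is drawn, the source does not say that exactly this form was tested. Some entries may be limits or estimates that an upstream database listed as plain numbers.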

Water solubility is log10 of mol/L, nominally at 25 °C; higher is more soluble.

| SMILES | water solubility (log10 mol/L) |
|---|---|
| COc1ccc2c(c1)CCCC2=CCC1(C)C(=O)CCC1=O | -4.828 |
| CC(Br)(CBr)COc1c(Br)cc(C(C)(C)c2cc(Br)c(OCC(C)(Br)CBr)c(Br)c2)cc1Br (stereo unspecified) | -7.686 |
| CN(C)CCC(O)(c1ccccc1)c1ccccc1Cl (stereo unspecified) | -3.669 |
| CC(C)=C(C)C(=O)O | -0.367 |
| CCCCC(CC)COC(=O)CS (stereo unspecified) | -4.635 |
| CC(SCSC(C)C(=O)O)C(=O)O (stereo unspecified) | -1.827 |
| CCC1(c2ccccc2)NC(=O)N(C)C1=O (stereo unspecified) | -2.352 |
| CC(C)(C)OC(=O)N[C@@H](C(=O)N1[C@@H]2C[C@@H]2C[C@@H]1C#N)C12CC3CC(CC(O)(C3)C1)C2 | -2.682 |
| CCCCOCCOCCOCCOC(=O)CCCC(=O)OCCOCCOCCOCCCC | -6.007 |
| C=C(C)C(=O)OCC(F)(F)F | -2.268 |
| C=CC1(C)CCC(C(C)(C)O)O1 (stereo unspecified) | -1.8 |
| COC(=O)c1cccc(C)c1S(=O)(=O)NC(=O)Nc1nc(OCC(F)(F)F)nc(N(C)C)n1 | -3.28 |
| CC1(C)O[C@@H]2C[C@H]3[C@@H]4C[C@H](F)C5=CC(=O)C=C[C@]5(C)[C@H]4[C@@H](O)C[C@]3(C)[C@]2(C(=O)CO)O1 | -4.065 |
| CCCCCCCCCCCCCCCCCCOC(=O)/C=C/C(=O)OCCCCCCCCCCCCCCCCCC | -7.094 |
| O=C(Nc1ccc2c(O)c(N=Nc3ccc(N=Nc4ccc(S(=O)(=O)[O-])cc4)cc3)c(S(=O)(=O)[O-])cc2c1)c1ccccc1.[Na+].[Na+] | -2.157 |
| CC/C=C\CCOC(=O)C(C)C | -3.174 |
| CC1(C)CC(=O)CC(C)(C#N)C1 (stereo unspecified) | -1.534 |
| CO[C@@H]1C=CO[C@]2(C)Oc3c(C)c(O)c4c(c3C2=O)C(=N)C(N)=C(NC(=O)C(C)=CC=C[C@@H](C)[C@@H](O)[C@H](C)[C@H](O)[C@H](C)[C@@H](OC(C)=O)[C@H]1C)C4=O | -4.598 |
| O=c1cnc2c(=O)[nH]c(=O)[nH]c2[nH]1 | -3.335 |
| N#CC(=C1CCCCC1)c1ccccc1 | -4.42 |
| CCCC1CCC(C2CCC(c3ccc(OC(F)(F)F)cc3)CC2)CC1 (stereo unspecified) | -6.265 |
| CCCc1ccc(-c2ccc(-c3ccc(CC)cc3)cc2F)cc1 | -7.901 |
| CC(C)(C)c1ccc(N)cc1 | -2.088 |
| CCOC(COC)OC (stereo unspecified) | 0.88 |
| CNC(=O)Nc1ccc(C)c(Cl)c1 | -2.879 |
| CC(C)(COC(=O)c1ccccc1)COC(=O)c1ccccc1 | -5.43 |
| CC1CC(C)(c2ccccc2)CO1 (stereo unspecified) | -2.433 |
| N#CCC(=O)NCc1ccccc1 | -2.065 |
| NS(=O)(=O)c1cc2c(s1)CC(O)CS2(=O)=O (stereo unspecified) | -1.589 |
| CCNC(=O)CCC/C=C\C[C@@H]1[C@@H](/C=C/[C@@H](O)CCc2ccccc2)[C@H](O)C[C@@H]1O | -4.347 |
| O=C(OCC1CCCO1)c1ccccc1 (stereo unspecified) | -2.323 |
| Nc1nc(=O)n(-c2ccccc2)[nH]1 | -2.468 |
| CCCCOc1ccc(C2=CCC([C@H]3CC[C@H](CC)CC3)CC2)c(F)c1F (stereo partly specified) | -6.673 |
| O=Cc1ccc(O)c(O)c1 | -1.34 |
| C=C[C@]1(C)CC[C@@H](C(C)(C)O)C[C@H]1C(=C)C | -3.059 |

Extract of 5 entries:

| SMILES | water solubility (log10 mol/L) |
|---|---|
| CCCCOCCOCCOCCOC(=O)CCCC(=O)OCCOCCOCCOCCCC | -6.007 |
| CC(C)(COC(=O)c1ccccc1)COC(=O)c1ccccc1 | -5.43 |
| N#CC(=C1CCCCC1)c1ccccc1 | -4.42 |
| CCOC(COC)OC (stereo unspecified) | 0.88 |
| NS(=O)(=O)c1cc2c(s1)CC(O)CS2(=O)=O (stereo unspecified) | -1.589 |